Drawing on patent US20150218173A1, “SUBSTITUTED INDAZOL-PYRROLOPYRIMIDINES USEFUL IN THE TREATMENT OF HYPERFOLIFERATIVE DISORDERS” (BAYER PHARMA AKTIENGESELLSCHAFT, priority 2012, published 2015), this text covers IC50 for two compounds.

Protein sequences, listed by entry. Tags and fused reporters are not part of them. Residues count along the entry.
UniProt Q9BUB5, 1-424 isoform 2 T344D: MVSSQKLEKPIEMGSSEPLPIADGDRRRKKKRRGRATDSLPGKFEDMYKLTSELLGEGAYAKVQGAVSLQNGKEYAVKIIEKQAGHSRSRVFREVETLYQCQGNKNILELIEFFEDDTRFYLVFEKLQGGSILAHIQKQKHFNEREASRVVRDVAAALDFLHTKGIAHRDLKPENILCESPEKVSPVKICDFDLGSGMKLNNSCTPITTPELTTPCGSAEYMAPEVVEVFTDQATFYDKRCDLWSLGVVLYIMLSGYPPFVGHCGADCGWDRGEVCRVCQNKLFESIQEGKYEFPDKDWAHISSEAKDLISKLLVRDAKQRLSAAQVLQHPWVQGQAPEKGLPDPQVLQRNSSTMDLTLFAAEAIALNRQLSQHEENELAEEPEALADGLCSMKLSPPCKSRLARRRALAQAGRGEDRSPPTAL

Each structure is given as a SMILES string. pIC50: −log10 of the molar value.

For this assay, the target named is human full-length MKNK1 (Homo sapiens, UniProt Q9BUB5, T385D). Kind of assay: MKNK1 kinase high ATP assay (TR-FRET). The following applies: read-out: MKNK1 IC50, high ATP (2 mM final), 15 min preincubation with enzyme. Here is the method: MKNK1-inhibitory activity at high ATP of compounds of the present invention after their preincubation with MKNK1 was quantified employing the TR-FRET-based MKNK1 high ATP assay as described in the following paragraphs.
A recombinant fusion protein of Glutathione-S-Transferase (GST, N-terminally) and human full-length MKNK1 (amino acids 1-424 and T344D of accession number BAA 19885.1), expressed in insect cells using baculovirus expression system and purified via glutathione sepharose affinity chromatography, was purchased from Carna Biosciences (product no 02-145) and used as enzyme. As substrate for the kinase reaction the biotinylated peptide biotin-Ahx-IKKRKLTRRKSLKG (C-terminus in amide form) was used, which can be purchased e.g. from the company Biosyntan (Berlin-Buch, Germany). […]
The resulting mixture was incubated for 1 h at 22° C. to allow the formation of complex between the phosphorylated biotinylated peptide and the detection reagents. Subsequently the amount of phosphorylated substrate was evaluated by measurement of the resonance energy transfer from the Eu-chelate to the streptavidine-XL. Therefore, the fluorescence emissions at 620 nm and 665 nm after excitation at 350 nm were measured in a TR-FRET reader, e.g. a Rubystar (BMG Labtechnologies, Offenburg, Germany) or a Viewlux (Perkin-Elmer). […]
In general terms: TR-FRET usually uses a lanthanide donor and a delayed reading to cut background.

By pIC50 is commonly meant the negative decadic logarithm of the IC50, by convention in mol/L.

As for `CN(C)C(=O)c1cc2c(Nc3ccc4[nH]ncc4c3)ncnc2[nH]1`, the pIC50 is 7.96. As for `Brc1cc2c(Nc3ccc4[nH]ncc4c3)ncnc2[nH]1`, the figure is 7.11.
